Only some compounds are listed: those with a hit (about 0.34% of all), similar ones and a draw of the others.
TRPML1 blocker: inhibitors of human TRPML1 channel. activity change, negative = inhibition, % (test concentration not listed). Q9GZU1. 390,000 tested, 0.02% active. AID 624415. TRPML1-inducible cells, Ca2+ dye fluorescence, FDSS; hits give low values; inhibition of EC80 agonist-evoked calcium signal; in the data active means activity change below about -50%; inconclusive means between about -30% and that limit;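 further: stimulus is agonist 54-4 at its EC80 concentration; on the % scale 0 is the no-effect control and ±100 the full control effect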
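TRPML1-DL cells, Tet-induced overnight (~16 h, 37 °C) at 1,500 cells/well, were loaded with Ca8 no-wash dye plus quencher for 45-90 min at room temperature. Compounds were pinned during FDSS kinetic reading; agonist 54-4 at EC80 (4 uM final) then added.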
uPA surface inh: inhibitors of cell surface uPA generation. cell surface uPA generation assay, qHTS. Potency, µM (titrated, usually from 38.3 µM), for inactives: at the top dose activity change, negative = inhibition, hits mostly inhibitors. 330,000 tested, 0.31% active. AID 540303; active means well fitted inhibition curve with a large enough effect; inconclusive means small, poorly fitted or top-dose-only effect; inactive means no such curve, though single readings can be large or run the other way; tested in mouse RAW 264.7 cells; further: potency means the concentration at half of the fitted maximal effect; on the % scale 0 is the no-effect control and ±100 the full control effect; nearly all actives have a fitted effect of over 55% in size
TRPML1 ag: human mucolipin-1 channel agonism | Q9GZU1 | activation, % (no concentration beside the values) | 410,000 tested, 0.12% active | TRPML1-expressing cells, Ca2+ dye fluorescence, FDSS; in the data active means activation above about 50%; inconclusive means mostly about 30% to 49%; further: 0% is about no effect
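Kinetic FDSS Ca2+ read in Tet-induced TRPML1-DL cells (ABD Ca8 dye plus quencher, 45-90 min RT loading): baseline, then compound, then 110 s agonist window; EC80 agonist 54-4 at 4uM final added afterwards for a 110 s antagonist window.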
miR-21 reporter: raises the signal of a miR-21 reporter | HeLa miR-21 FLuc reporter, luciferase, 48 h | Potency, µM (highest dose often 38.3 µM), for inactives: at the highest dose reporter change, positive = more light | 340,000 tested, under 10 active | AID 2288; active = well fitted rising curve with a large enough effect; inconclusive = small, poorly fitted or top-dose-only effect; inactive = no such curve, though single readings can be large or run the other way;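 also: % of control where 0% means no effect; miR-21 action dims this reporter so a rising signal means less miR-21 action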
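Luminescence from a firefly luciferase reporter carrying a miR-21 binding site downstream, stably expressed under a CMV promoter in HeLa cells that make miR-21 endogenously, reports miRNA modulation after 48 h compound exposure up to approximately 40uM final.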
Starred values were filed as active, the others as inactive.

`N#CCCCC#Cc1ccc2c(c1)COc1c3ccccc3nn1-2` gave TRPML1 blocker 3.3, uPA surface inh 10µM* and TRPML1 ag -0.2.
CCCCC#Cc1ccc2c(c1)COc1c3ccccc3nn1-2 was read as TRPML1 blocker 26.0, uPA surface inh -1.7%, TRPML1 ag 1.5 and miR-21 reporter -68.4%.
`O=C(Nc1ccc(Cl)cc1Cl)[C@@H]1CC=C[C@@H]2CCN(C3CCCCC3)C(=O)[C@@H]21` gave TRPML1 ag -0.7.
For Oc1cc2cc(-c3csc(-c4ccc(F)cc4)n3)ccc2[nH]1 the results were TRPML1 ag -1.0.
`COc1cccc(NC(=O)c2cnn(-c3ccccc3)c2C)c1` gave TRPML1 blocker -0.6, uPA surface inh 10µM*, TRPML1 ag 0.0 and miR-21 reporter -9.3%.
Screening CCN(CC)c1ccc(/C=C/C(=O)c2ccc(Br)cc2)cc1 returned TRPML1 blocker -14.1, uPA surface inh 2.9%, TRPML1 ag 87.8* and miR-21 reporter -10.8%.
CN(C)c1cc[n+](CC(=O)c2ccc(-c3ccccc3)cc2)cc1 was read as TRPML1 blocker -8.7, uPA surface inh 7.08µM*, TRPML1 ag 1.9 and miR-21 reporter inconclusive.
Cc1sc2ccccc2[n+]1Cc1ccccc1 was read as TRPML1 ag -0.7.
For CC(=O)Nc1sc2c(c1-c1nc3ccccc3s1)CN(C(C)C)CC2 the results were uPA surface inh 2µM*.
`CN1CCc2c(sc(NC(=O)CSc3ccccc3)c2-c2nc3ccccc3s2)C1` gave TRPML1 blocker -11.5, TRPML1 ag 59.4* and miR-21 reporter -0.2%.
`CC(=O)N1CCc2c(sc(NC(=O)CSc3ccccc3)c2-c2nc3ccccc3s2)C1` gave TRPML1 blocker 36.1, TRPML1 ag 2.8 and miR-21 reporter 17.4%.
CC(C)N1CCc2c(sc(NC(=O)c3nc4ccccc4s3)c2C(N)=O)C1 was read as TRPML1 blocker 23.4, TRPML1 ag -0.6 and miR-21 reporter -0.7%.
CN(C)C(=O)COc1ccccc1C(=O)OCC(=O)Nc1ccc(Oc2ccc(Br)cc2)cc1 was read as TRPML1 ag -0.2.
For CN(C)C1=NC[C@H](Cc2ccccc2)N1CCCC1CCCC1 the results were TRPML1 blocker 41.8, uPA surface inh 3.98µM* and TRPML1 ag 1.0.
`Oc1c(C(c2ccccc2Cl)N2CCCC2)ccc2cccnc12` (centres undefined) gave TRPML1 blocker -9.4, uPA surface inh 7.94µM*, TRPML1 ag 1.5 and miR-21 reporter inconclusive.

Retrieved by compound from above (2):
`N#CCCCC#Cc1ccc2c(c1)COc1c3ccccc3nn1-2` gave TRPML1 blocker 3.3, uPA surface inh 10µM* and TRPML1 ag -0.2.
CN(C)C(=O)COc1ccccc1C(=O)OCC(=O)Nc1ccc(Oc2ccc(Br)cc2)cc1 was read as TRPML1 ag -0.2.

Additional records follow:
`Oc1c(C(c2ccc(Cl)cc2)N2CCCC2)cc(Cl)c2cccnc12` (centres undefined) gave TRPML1 blocker -10.4, uPA surface inh inconclusive, TRPML1 ag -0.2 and miR-21 reporter inconclusive.
Screening COc1cc(C(=O)NCC(c2ccccc2)N(C)C)ccc1OCc1c(C)noc1C (centres undefined) returned TRPML1 blocker 3.6, uPA surface inh 7.94µM* and TRPML1 ag -0.4.
COc1ccccc1CNC(=O)c1ccc(OCc2c(C)noc2C)c(OC)c1 was read as TRPML1 blocker 0.4, uPA surface inh -5.4%, TRPML1 ag 0.3 and miR-21 reporter -7.7%.
For COc1cc(C(=O)OCC#N)ccc1OCc1c(C)noc1C the results were TRPML1 blocker -7.6, uPA surface inh 11.2µM*, TRPML1 ag -0.5 and miR-21 reporter 21.6%.
Screening CN(CCC#N)c1ccc(/C=C/c2ccnc3ccccc23)cc1 returned TRPML1 ag 4.1.
Screening CCCCC(=O)NC(c1cccc([N+](=O)[O-])c1)c1ccc2cccnc2c1O (centres undefined) returned TRPML1 blocker 20.6, uPA surface inh 5.01µM* and TRPML1 ag 4.1.
For COc1cc(C(=O)N2CCN(c3ccc(C)cc3C)CC2)cc(OC)c1OC the results were TRPML1 blocker 20.8, uPA surface inh 3.16µM*, TRPML1 ag 1.3 and miR-21 reporter 16.6%.
Screening CC(c1ccccc1)N1CCN(C(=O)CCl)CC1 (centres undefined) returned TRPML1 blocker -12.8, uPA surface inh 8.91µM*, TRPML1 ag 0.5 and miR-21 reporter inconclusive.
`CN(C)S(=O)(=O)c1ccc(Cl)c(NC(=O)CN2C(=O)NC(C)(C3CC3)C2=O)c1` (centres undefined) gave TRPML1 blocker -14.9, uPA surface inh 5.62µM*, TRPML1 ag -0.5 and miR-21 reporter -0.6%.
For CC1(C2CC2)NC(=O)N(CC(=O)Nc2cc(S(=O)(=O)N3CCCCC3)ccc2Cl)C1=O (centres undefined) the results were TRPML1 blocker -16.5, uPA surface inh inconclusive and TRPML1 ag 0.0.
N#C/C(=C\c1ccc(O)c(O)c1)C(=O)c1ccc(O)c(O)c1 was read as TRPML1 blocker 15.1, uPA surface inh 3.98µM* and TRPML1 ag 0.1.
For N#C/C(=C\c1ccc(O)c(O)c1)C(=O)NCCCc1ccccc1 the results were TRPML1 blocker -0.6, uPA surface inh 3.55µM*, TRPML1 ag 1.9 and miR-21 reporter -17.2%.
For CC(C)(C)n1nnnc1C(c1cccs1)N(Cc1ccc(Cl)cc1)CC1CCCO1 (centres undefined) the results were TRPML1 blocker -18.5, uPA surface inh 3.9%, TRPML1 ag 66.1* and miR-21 reporter 19.0%.
Screening O=C(c1ccccc1)c1cc([N+](=O)[O-])ccc1N1CCOCC1 returned TRPML1 blocker -3.9, uPA surface inh -10.8%, TRPML1 ag -0.7 and miR-21 reporter 26.2%.
Screening CC1CCCN(c2ccc([N+](=O)[O-])cc2C(=O)c2ccccc2)C1 (centres undefined) returned TRPML1 blocker 20.1, uPA surface inh 0.159µM*, TRPML1 ag 3.1 and miR-21 reporter 26.1%.

In the list so far, two have bromine:
Screening CCN(CC)c1ccc(/C=C/C(=O)c2ccc(Br)cc2)cc1 returned TRPML1 blocker -14.1, uPA surface inh 2.9%, TRPML1 ag 87.8* and miR-21 reporter -10.8%.
CN(C)C(=O)COc1ccccc1C(=O)OCC(=O)Nc1ccc(Oc2ccc(Br)cc2)cc1 was read as TRPML1 ag -0.2.

(list continues)
`CN(CCc1ccccc1)C(c1cc2ccccc2o1)c1nnnn1C(C)(C)C` (centres undefined) gave TRPML1 ag 69.8*.
For CC(C)(C)n1ncc2c(=O)n(Cc3cc(Cl)ccc3Cl)cnc21 the results were TRPML1 blocker 24.9 and TRPML1 ag 2.2.
Screening COc1ccc(CCNc2ncnc3c2c(-c2ccccc2)cn3-c2ccc(F)cc2)cc1OC returned TRPML1 blocker -22.0, TRPML1 ag 63.9* and miR-21 reporter 17.3%.
Screening COc1ccc(CCNc2ncnc3c2c(-c2ccccc2)cn3-c2ccc(Cl)cc2)cc1OC returned TRPML1 blocker -18.1, TRPML1 ag 76.8* and miR-21 reporter 1.1%.
`COc1ccc(Cl)cc1Nc1ncnc2c1c(-c1ccccc1)cn2-c1ccccc1` gave TRPML1 blocker -0.1, TRPML1 ag 0.0 and miR-21 reporter -1.2%.
For Fc1ccc(-n2cc(-c3ccccc3)c3c(NCCc4ccccc4)ncnc32)cc1 the results were TRPML1 blocker 64.9, TRPML1 ag 0.9 and miR-21 reporter -8.5%.
`CCOc1ccc(-n2nc3ccc(N)cc3n2)cc1` gave uPA surface inh 10µM* and miR-21 reporter 21.9%.
O=C(Nc1cccc(O)c1)c1ccccc1[N+](=O)[O-] was read as TRPML1 blocker 2.9, uPA surface inh 2.9%, TRPML1 ag -0.9 and miR-21 reporter -2.5%.

Screening data: PubChem BioAssay, National Center for Advancing Translational Sciences (NCATS)
